pIC50: −log10 of the molar value. Read-outs that look alike come from different tables or passages of the source.
Legend:
MDA-MB-468 control cells = test: MT cell viability assay (CellTiter-Glo 2.0), control cells; assay type: cell-based, Human; details: control MDA-MB-468 cells, read-out: half maximal inhibitory concentration or IC50 (cell viability)
Protocol: (§1) FIG. 10 depicts graphs representing cell viability at 48h and 72 h as a function of the drug concentration M, for MDA MB 468 control cells (w) or stably overexpressing Kindlin-1 (k1).
(§2) 15 000 cells were seeded in a 96-well plate and treated with Cetuximab (Erbitux 5 mg/ml, Merck Europe). After 48 and 72 hours cell viability was assessed using the CellTiter-Glo 2.0 Assay according to the instructions of the manufacturer (Promega, Madison, WI, USA). Luminiscence was recorded on a 96-well microplate reader (Promega Glomax Discover, Promega).
(§3) The possibility that Kindlin-1 ectopic expression could reverse the sensitivity to the EGFR inhibitor Cetuximab was tested. The inventors hypothesized that ectopic expression of Kindlin-1 could bypass the action of Cetuximab, maintaining the EGFR pathway activated and therefore rendering sensitive cells more resistant. To confirm our hypothesis, MDA-MB-468 cells stably overexpressing Kindlin-1 was generated (named k1). Control- and Kindlin-1-expressing MDA-MB-468 cells were treated with increasing concentrations of Cetuximab (1-20 µM) and a MT cell viability assay was performed after 48 h and 72 h of treatment.

[1] = system: MDA-MB-468 cells stably overexpressing Kindlin-1 (k1); test: MT cell viability assay (CellTiter-Glo 2.0), Kindlin-1 overexpressing cells; assay type: cell-based, Human; details: Kindlin-1-expressing MDA-MB-468 cells (k1), read-out: half maximal inhibitory concentration or IC50 (cell viability)
Protocol: as §1, §2, §3

pIC50 (MDA-MB-468 control cells; 48 h of treatment): 5.14 | pIC50 (MDA-MB-468 control cells; 72 h of treatment): 5.21 | pIC50 ([1]; 48 h of treatment): 4.83 | pIC50 ([1]; 72 h of treatment): 4.95
Substance: Cetuximab

— patent US20230184775A1, “KINDLIN-1 AS A MARKER OF SENSITIVITY TO EGFR/RAS PATHWAY INHIBITORS” (INSTITUT CURIE, priority 2020, published 2023)
